Data set [1] is described as follows: Amount of phase-changing probe 2-EHDG required until phase structure changes (Wm phase to Om phase + W phase); liquid physical property index read from calibration curve. The data set is classed as physicochemical. As to conditions: surfactant 100 mmol/kg, solvent BDG 5 mass %, C16 isoparaffin 2 g per 100 g, no inorganic salt; for Quantitative value (g) of phase-changing probe (2-EHDG): 25° C., calibration curve 10.

Assay in data set [2]: as above
The data set is classed as physicochemical. The following applies: 100 mmol/kg; oil component Cyclohexane; calibration curve 7. Here is the method: Using the following components, precursor samples and standard samples for preparing calibration curves were prepared, and using any of the following phase-changing probes, an amount of the phase-changing probe required until a phase structure of a standard sample changed was quantified for each of a plurality of surfactants (G). The calibration curves were prepared from the plurality of quantitative values obtained. • Surfactant (G): a plurality of polyoxyethylene lauryl ethers with different average numbers of added moles of the ethylene oxide • Oil component: an isoparaffin with an average number of carbons of 16 (hereinafter, referred to as C16 isoparaffin) • Phase-changing probe: 2-ethylhexyl diglycol or butyldiglycol […]
The amount of the oil component added per 100 g of each precursor sample was determined to be 4 g by assigning 50 to X in the aforementioned formula (I).
For this standard sample, 2-ethylhexyl diglycol (hereinafter, sometimes also referred to as 2-EHDG) was used as the phase-changing probe, and an amount of the phase-changing probe required until a phase structure of the standard sample changed from a micellar solution phase (Wm phase) to a mixed system of a reversed micellar oil solution phase (Om phase) and a water phase (W phase) was taken as the quantitative value. […]

For the compound `CCCCCCCCCCCC[N+](C)(C)[O-]` [Lauryl dimethylamine oxide], in data set [1], the “Quantitative value (g) of phase-changing probe (2-EHDG)” value came to 5.04 g and the “Solution physical property index (corresponding HLB) from calibration curve 10” value is given as 11.73. Consider `CCCCCCCCCCCC[N+](C)(C)CC(O)CS(=O)(=O)[O-]` (centres unmarked) [N-lauryl-N,N-dimethyl-N-(2-hydroxysulfopropyl)ammonium sulfobetaine], for which, in data set [2], the “Solution physical property index (corresponding HLB) from calibration curve” value is 11.30. For “Sodium linear alkyl (main constituent: C12) benzene sulfonate”, in data set [1], the “Quantitative value (g) of phase-changing probe (2-EHDG)” value is reported as 19.56 g and the “Solution physical property index (corresponding HLB) from calibration curve 10” value is on record as 17.83.

Source of the values: patent US12153062B2, “Method for estimating physical property of aqueous sample” (Kao Corporation, priority 2018, dated 2024).
